Earlier results in US10226472B2, “Methods for the treatment of breast cancer” (SYNDAX PHARMACEUTICALS, INC., priority 2011, dated 2019).
Read-outs that look alike come from different tables or passages of the source.

Test system: HER2-positive breast cancer cell lines (BT474 and SKBR3)
Conditions: following trastuzumab exposure, cited from earlier work

Question: What does the source list for “trastuzumab: monoclonal antibody that blocks the effects of the growth factor protein HER2”?
Answer: G0/G1 arrest (resistant cells): 68%; cells in S-phase (resistant cells): 14%; G0/G1 arrest (sensitive cells): 84%
